The text below walks through data of ChEMBL document CHEMBL1145387, “Carbonic anhydrase activators: activation of the human isoforms VII (cytosolic) and XIV (transmembrane) with amino acids and amines” (Bioorg Med Chem Lett, 2007).

Common to all, as to settings: Homo sapiens; 10 uM
Substrate in series [1]: N[C@@H](Cc1ccccc1)C(=O)O
Substrate in series [2]: N[C@H](Cc1ccccc1)C(=O)O
Substrate in series [3]: N[C@@H](Cc1ccccc1)C(=O)O
The source holds these as a separate data set.

Substrate in series [4]: N[C@H](Cc1ccccc1)C(=O)O
The source holds these as a separate data set.

B1: Carbonic anhydrase 7 (Homo sapiens), P43166 (protein)
chain: MTGHHGWGYGQDDGPSHWHKLYPIAQGDRQSPINIISSQAVYSPSLQPLELSYEACMSLSITNNGHSVQVDFNDSDDRTVVTGGPLEGPYRLKQFHFHWGKKHDVGSEHTVDGKSFPSELHLVHWNAKKYSTFGEAASAPDGLAVVGVFLETGDEHPSMNRLTDALYMVRFKGTKAQFSCFNPKCLLPASRHYWTYPGSLTTPPLSESVTWIVLREPICISERQMGKFRSLLFTSEDDERIHMVNNFRPPQPLKGRVVKASFRA
Broadly, the kcat is the maximal rate divided by the concentration of active sites. Regarding B1, the catalytic constant (kcat) in series [1] was 14.6 10^5/s; in series [2] it was 15.8 10^5/s.

B2: Carbonic anhydrase 14 (Homo sapiens), Q9ULX7 (protein)
chain: MLFSALLLEVIWILAADGGQHWTYEGPHGQDHWPASYPECGNNAQSPIDIQTDSVTFDPDLPALQPHGYDQPGTEPLDLHNNGHTVQLSLPSTLYLGGLPRKYVAAQLHLHWGQKGSPGGSEHQINSEATFAELHIVHYDSDSYDSLSEAAERPQGLAVLGILIEVGETKNIAYEHILSHLHEVRHKDQKTSVPPFNLRELLPKQLGQYFRYNGSLTTPPCYQSVLWTVFYRRSQISMEQLEKLQGTLFSTEEEPSKLLVQNYRALQPLNQRMVFASFIQAGSSYTTGEMLSLGVGILVGCLCLLLAVYFIARKIRKKRLENRKSVVFTSAQATTEA
In the case of B2, the kcat in series [3] was 12.5 10^5/s; in series [4], 6.1 10^5/s.
